Results reported in ChEMBL document CHEMBL4334453, “Callistemonols A and B, Potent Antimicrobial Acylphloroglucinol Derivatives with Unusual Carbon Skeletons from Callistemon viminalis” (2019).
Values after ≈ are worked out from the molar mass of the structure shown.

Tested on: Staphylococcus aureus
Assay: Antibacterial activity against methicillin-resistant Staphylococcus aureus JCSC 4744 incubated overnight by CLSI protocol based microdilution assay
Format: functional

CC[C@H](C)[C@H](NC(=O)CN)C(=O)NCC(=O)N[C@@H](C)C(=O)N[C@H](C(=O)N[C@@H](CC(C)C)C(=O)N[C@@H](CCCCN)C(=O)N[C@H](C(=O)N[C@@H](CC(C)C)C(=O)N[C@H](C(=O)N[C@H](C(=O)NCC(=O)N[C@@H](CC(C)C)C(=O)N1CCC[C@H]1C(=O)N[C@@H](C)C(=O)N[C@@H](CC(C)C)C(=O)N[C@H](C(=O)N[C@@H](CO)C(=O)N[C@@H](Cc1c[nH]c2ccccc12)C(=O)N[C@H](C(=O)N[C@@H](CCCCN)C(=O)N[C@@H](CCCNC(=N)N)C(=O)N[C@@H](CCCCN)C(=O)N[C@@H](CCCNC(=N)N)C(=O)N[C@@H](CCC(N)=O)C(=O)N[C@@H](CCC(N)=O)C(N)=O)[C@@H](C)CC)[C@@H](C)CC)[C@@H](C)O)[C@@H](C)O)C(C)C)C(C)C [MELITTIN]
MIC: 1.25 µg/mL (≈ 0.439 µM)
